Only a part is listed here, and it is no random draw. Active and inactive are the calls of the source.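 Rule for the calls: active = GFP response relative to DMSO above a set limit, near screen average plus 3 SD (cut at about 150% in these data); inconclusive = fewer than 70 cells counted for the yeast strain; inactive = the rest.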
Assay: modulators of AGP1-GFP expression in yeast TOR pathway, primary screen, cell-based, multiplex flow cytometry, S. cerevisiae, MLPCN library (AID 2066);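 note: median GFP channel fluorescence of the gated AGP1 strain per well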
Conditions: 3 h, at 10 µM, stronger effect = higher value, GFP as percent of DMSO wells

SMILES	GFP response vs DMSO
CCC(=O)N(c1ccccc1)C1(COC)CCN(CCc2cccs2)CC1	inactive: 102%
CCC(=O)N(c1ccccc1)C1(COC)CCN(CCn2nnn(CC)c2=O)CC1	inactive: 99.2%
